Earlier results on one molecule are cited in patent publication US12116388B2, “Amylin receptor agonists” (Novo Nordisk A/S, priority 2022, dated 2024).

The conditions of the data set: background statement; cited from earlier work.

`CC[C@H](C)[C@H](NC(=O)[C@@H]1CCCN1C(=O)CNC(=O)[C@H](Cc1ccccc1)NC(=O)[C@H](CC(N)=O)NC(=O)[C@H](CC(N)=O)NC(=O)[C@H](CO)NC(=O)[C@H](CO)NC(=O)[C@H](Cc1c[nH]cn1)NC(=O)[C@@H](NC(=O)[C@H](CC(C)C)NC(=O)[C@H](Cc1ccccc1)NC(=O)[C@H](CC(N)=O)NC(=O)[C@H](C)NC(=O)[C@H](CC(C)C)NC(=O)[C@H](CCCNC(=N)N)NC(=O)[C@H](CCC(N)=O)NC(=O)[C@@H](NC(=O)[C@H](C)NC(=O)[C@@H]1CSSC[C@H](NC(=O)[C@@H](N)CCCCN)C(=O)N[C@@H](CC(N)=O)C(=O)N[C@@H]([C@@H](C)O)C(=O)N[C@@H](C)C(=O)N[C@@H]([C@@H](C)O)C(=O)N1)[C@@H](C)O)C(C)C)C(=O)N[C@@H](CC(C)C)C(=O)N1CCC[C@H]1C(=O)N1CCC[C@H]1C(=O)N[C@H](C(=O)N[C@@H](CC(N)=O)C(=O)N[C@H](C(=O)NCC(=O)N[C@@H](CO)C(=O)N[C@@H](CC(N)=O)C(=O)N[C@H](C(=O)N[C@@H](Cc1ccc(O)cc1)C(N)=O)[C@@H](C)O)C(C)C)[C@@H](C)O` [Pramlintide, pramlintide]: the biological half-life entry is “less than 1 hour”.
